# Data published in patent EP4837910A1, “ISOXAZOLINE COMPOUND AND PREPARATION METHOD THEREFOR, HERBICIDAL COMPOSITION, AND USE” (dated 2026).
# Tests used:
# [1] = system: Monocotyledonous and dicotyledonous weed; experiment: Pre-emergence test on weeds (greenhouse, sprayed immediately after sowing); settings: after 4 weeks in greenhouse, fresh weight control rate
# Zea mays = experiment: Pre-emergence test, crop damage (greenhouse, sprayed immediately after sowing); settings: after 4 weeks in greenhouse, fresh weight control rate
# From the text: Monocotyledonous and dicotyledonous weed seeds as well as major crop seeds were placed in plastic pots filled with soil and then covered with 0.5-2 cm of soil. The test compounds of the present invention were individually dissolved with acetone, then added with Tween® 80, diluted with certain amount of water to obtain solutions of certain concentrations, and sprayed immediately after sowing. After drug application, the experimental results on weeds were observed after 4 weeks of cultivation in a greenhouse. Table 3 Results of pre-emergence test on weeds
Structure (SMILES),"activity level of plant damage (growth control rate), Descurainia sophia ([1]; Dosage 240 g a.i./ha)","activity level of plant damage (growth control rate), Digitaria sanguinalis ([1]; Dosage 240 g a.i./ha)","activity level of plant damage (growth control rate), Lolium multiflorum ([1]; Dosage 240 g a.i./ha)","activity level of plant damage (growth control rate), Setaria viridis ([1]; Dosage 240 g a.i./ha)","activity level of plant damage (growth control rate), Zea mays (Zea mays; Dosage 240 g a.i./ha)","activity level of plant damage (growth control rate), Digitaria sanguinalis ([1]; Dosage 250 g a.i./ha)","activity level of plant damage (growth control rate), Setaria viridis ([1]; Dosage 250 g a.i./ha)","activity level of plant damage (growth control rate), Zea mays (Zea mays; Dosage 250 g a.i./ha)"
C=C[C@]1(C(=O)N[C@H](C)C(=O)NOC)CC(c2cc(F)cc(Cl)c2)=NO1,9,8 (Level 8: growth control rate greater than or equal to 90% and less than 100%),9,8 (Level 8: growth control rate greater than or equal to 90% and less than 100%),0,,,
C=C[C@]1(C(=O)N[C@H](C)C(=O)NOC)CC(c2cc(F)cc(F)c2)=NO1,,,8 (Level 8: growth control rate greater than or equal to 90% and less than 100%),,1 (Level 1: growth control rate less than 10%),,,
C=CC1(C(=O)O[C@H](C)C(=O)N(C)OC)CC(c2cc(F)cc(F)c2)=NO1 (stereo partly drawn),,,9,5 (Level 5: growth control rate greater than or equal to 50% and less than 70%),0,,,
C=C[C@]1(C(=O)N[C@@H](C)C(=O)N(CSC)OC)CC(c2cc(F)cc(F)c2)=NO1,,6 (Level 6: growth control rate greater than or equal to 70% and less than 80%),9,,0,,,
C=C[C@@]1(C(=O)N[C@@H](C)C(=O)NOC)CC(c2cc(F)cc(OC(F)(F)F)c2)=NO1,5 (Level 5: growth control rate greater than or equal to 50% and less than 70%),,7 (Level 7: growth control rate greater than or equal to 80% and less than 90%),,0,,,
C=C(C)[C@]1(C(=O)N[C@@H](C)C(=O)N(C)OC)CC(c2cc(Br)cc(Br)c2)=NO1,,9,9,9,0,,,
CC[C@]1(C(=O)N[C@@H](C)C(=O)N(C)OC)CC(c2cc(Br)cc(Br)c2)=NO1,,9,9,9,0,,,
C=C[C@]1(C(=O)N[C@@H](C)C(=O)N(C)OC)CC(c2cc(Cl)cc(C(F)(F)F)c2)=NO1,,9,9,9,1 (Level 1: growth control rate less than 10%),,,
CON(C)C(=O)[C@H](C)NC(=O)[C@@]1(C(F)(F)F)CC(c2cc(F)cc(F)c2)=NO1,,8 (Level 8: growth control rate greater than or equal to 90% and less than 100%),,8 (Level 8: growth control rate greater than or equal to 90% and less than 100%),2 (Level 2: growth control rate greater than or equal to 10% and less than 20%),,,
C=C[C@]1(C(=O)N[C@@H](C)C(=O)N(C)O)CC(c2cc(F)cc(F)c2)=NO1,9,9,9,9,1 (Level 1: growth control rate less than 10%),,,
CC[C@@]1(C(=O)N[C@@H](C)C(=O)NOC)CC(c2cc(F)cc(Br)c2)=NO1,,,8 (Level 8: growth control rate greater than or equal to 90% and less than 100%),,0,,,
C=C[C@]1(C(=O)N[C@H](C(=O)N(C)OC)C2CC2)CC(c2cc(F)cc(F)c2)=NO1,9,9,9,9,0,,,
C=C[C@]1(C(=O)N[C@@H](Cc2ccccc2)C(=O)N(C)OC)CC(c2cc(F)cc(F)c2)=NO1,,5 (Level 5: growth control rate greater than or equal to 50% and less than 70%),,,0,,,
C=C[C@]1(C(=O)N[C@H](C(=O)N(C)OC)C(C)CC)CC(c2cc(F)cc(F)c2)=NO1 (stereo partly drawn),,5 (Level 5: growth control rate greater than or equal to 50% and less than 70%),6 (Level 6: growth control rate greater than or equal to 70% and less than 80%),7 (Level 7: growth control rate greater than or equal to 80% and less than 90%),0,,,
C=C[C@]1(C(=O)N[C@@H](C)C(=O)N(OC)C(=O)OC)CC(c2cc(F)cc(F)c2)=NO1,9,,9,,0,,,
C=CC1(C(=O)N[C@@H](C)C(=O)N(C)OC)CC(c2cc(F)cc(S(C)(=O)=O)c2)=NO1 (stereo partly drawn),6 (Level 6: growth control rate greater than or equal to 70% and less than 80%),,,5 (Level 5: growth control rate greater than or equal to 50% and less than 70%),0,,,
C=CC1(C(=O)N[C@@H](C)C(=O)NOC(C)C)CC(c2cc(F)cc(F)c2)=NO1 (stereo partly drawn),,6 (Level 6: growth control rate greater than or equal to 70% and less than 80%),9,8 (Level 8: growth control rate greater than or equal to 90% and less than 100%),0,,,
C=C[C@@]1(C(=O)N[C@@H](C)C(=O)N(CC)OC)CC(c2cc(F)cc(F)c2)=NO1,5 (Level 5: growth control rate greater than or equal to 50% and less than 70%),,,5 (Level 5: growth control rate greater than or equal to 50% and less than 70%),0,,,
C=C[C@]1(C(=O)N[C@@H](CC#N)C(=O)N(C)OC)CC(c2cc(F)cc(F)c2)=NO1,,,9,,1 (Level 1: growth control rate less than 10%),,,
C=C[C@]1(C(=O)N[C@@H](CC(C)C)C(=O)N(C)OC)CC(c2cc(F)cc(F)c2)=NO1,,,7 (Level 7: growth control rate greater than or equal to 80% and less than 90%),,0,,,
C=C[C@]1(C(=O)N[C@@H](Cc2ccc([N+](=O)[O-])cc2)C(=O)N(C)OC)CC(c2cc(F)cc(F)c2)=NO1,,,5 (Level 5: growth control rate greater than or equal to 50% and less than 70%),,0,,,
C=C[C@]1(C(=O)N[C@@H](C)C(=O)N(C)OCCON=C(C)C)CC(c2cc(F)cc(F)c2)=NO1,,,9,,0,,,
C=C[C@]1(C(=O)NC(CC)C(=O)N(C)OC)CC(c2cc(F)cc(F)c2)=NO1 (stereo partly drawn),,5 (Level 5: growth control rate greater than or equal to 50% and less than 70%),8 (Level 8: growth control rate greater than or equal to 90% and less than 100%),8 (Level 8: growth control rate greater than or equal to 90% and less than 100%),2 (Level 2: growth control rate greater than or equal to 10% and less than 20%),,,
C=C[C@]1(C(=O)N[C@@H](C)C(=O)N(CC)OCC)CC(c2cc(F)cc(F)c2)=NO1,9,9,9,9,0,,,
C=CC1(C(=O)N[C@@H](C)C(=O)N(C)OC)CC(c2ccc(F)c(Cl)c2)=NO1 (stereo partly drawn),,,5 (Level 5: growth control rate greater than or equal to 50% and less than 70%),,0,,,
C=C[C@]1(C(=O)N[C@@H](CCC)C(=O)N(C)OC)CC(c2cc(F)cc(F)c2)=NO1,,9,8 (Level 8: growth control rate greater than or equal to 90% and less than 100%),9,2 (Level 2: growth control rate greater than or equal to 10% and less than 20%),,,
C=C[C@]1(C(=O)N[C@@H](CC2CC2)C(=O)N(C)OC)CC(c2cc(F)cc(F)c2)=NO1,,,,9,0,,,
C=CC1(C(=O)N[C@H](C)C(=O)N(C)OC)CC(c2cc(F)cc(F)c2)=NO1 (stereo partly drawn),,,,,,9,9,0
